Drawing on ChEMBL document CHEMBL1152440, “Discovering potent small molecule inhibitors of cyclophilin A using de novo drug design approach” (J Med Chem, 2009), this text covers IC50 for six molecules.

Sequences of proteins named here, by UniProt entry; tags and fusion partners are left off.
UniProt P62937, whole entry: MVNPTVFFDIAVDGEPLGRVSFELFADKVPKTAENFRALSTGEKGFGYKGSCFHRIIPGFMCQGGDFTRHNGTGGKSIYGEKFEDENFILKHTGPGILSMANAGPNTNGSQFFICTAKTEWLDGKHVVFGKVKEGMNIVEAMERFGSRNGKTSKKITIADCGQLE

The experiment concerns the target Peptidyl-prolyl cis-trans isomerase A (Homo sapiens, UniProt P62937).
`O=C(NC(=O)c1c(O)cccc1O)Nc1cccc2ccccc12` yielded a half-maximal inhibitory concentration (IC50) above 10000 nM.
Next, `O=C(NC(=O)c1c(F)cccc1Cl)NC1c2ccccc2-c2ccccc21`: 1.52 nM; `O=C(NC(=O)c1ccccc1Cl)NC1c2ccccc2-c2ccccc21`: 103 nM.
As for `O=C(NC(=O)c1c(Cl)cccc1Cl)NC1c2ccccc2-c2ccccc21`, the figure is 2.59 nM.
`O=C(NC(=O)c1c(O)cccc1O)NC1CCc2ccccc21` (stereo unspecified) had an IC50 above 10000 nM.
Next, `CSc1cccc(F)c1C(=O)NC(=O)NC1c2ccccc2-c2ccccc21`: 1910 nM.

A word on the IC50: it is the concentration that inhibits the measured activity by half. A lower IC50 goes with higher potency.
